This test addresses 5'-AMP-activated protein kinase catalytic subunit alpha-1 (Homo sapiens, UniProt Q13131).

Protein sequences, listed by entry. Tags and fused reporters are not part of them. Lines headed by an entry give the natural chain unless they say otherwise; changes in a name come on top.
UniProt Q13131: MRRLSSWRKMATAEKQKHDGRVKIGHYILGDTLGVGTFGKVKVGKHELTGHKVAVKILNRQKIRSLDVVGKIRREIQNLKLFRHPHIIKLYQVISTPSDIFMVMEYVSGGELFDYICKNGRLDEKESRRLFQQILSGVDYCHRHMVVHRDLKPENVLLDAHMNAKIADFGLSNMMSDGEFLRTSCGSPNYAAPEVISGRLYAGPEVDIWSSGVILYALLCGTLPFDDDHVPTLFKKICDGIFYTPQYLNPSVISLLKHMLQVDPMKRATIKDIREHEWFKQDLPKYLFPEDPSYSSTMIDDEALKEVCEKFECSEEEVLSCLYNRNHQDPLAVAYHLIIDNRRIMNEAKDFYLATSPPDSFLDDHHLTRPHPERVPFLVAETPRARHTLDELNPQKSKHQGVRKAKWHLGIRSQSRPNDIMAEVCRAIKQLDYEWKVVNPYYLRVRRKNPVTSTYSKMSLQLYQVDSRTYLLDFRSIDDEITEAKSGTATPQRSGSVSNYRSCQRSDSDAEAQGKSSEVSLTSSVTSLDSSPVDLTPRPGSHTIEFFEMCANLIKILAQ

The source of these data is ChEMBL document CHEMBL6103567, “A novel pyridine-2-one AMPK inhibitor: Discovery, mechanism, and in vivo evaluation in a hypoxic pulmonary arterial hypertension rat model” (Eur J Med Chem, 2025).

Each structure is given as a SMILES string.

One may read the IC50 as the concentration that inhibits the measured activity by half. High values mean weaker potency, low ones greater potency. In turn, `c1cc(-c2cnn3cc(-c4ccc(OCCN5CCCCC5)cc4)cnc23)ccn1` [DORSOMORPHIN] registered an IC50 of 6.33 µM.
